Assays:
[1] = biological target: PDE4B (human recombinant) (Homo sapiens, UniProt Q07343); assay: Inhibition of PDE4B activity: Radioactive Scintillation Proximity Assay (SPA); assay type: biochemical; conditions: SPA or FP format not given, tested form: HCl
PDE5 (human recombinant) = PDE5 (human recombinant) (Homo sapiens, UniProt O76074); assay: Inhibition of PDE5 activity: Radioactive Scintillation Proximity Assay (SPA); conditions: tested form: HCl

The chains behind the UniProt entries cited, without tags or fusion partners. Residues count along the entry.
UniProt Q07343, 1-564 isoform 2: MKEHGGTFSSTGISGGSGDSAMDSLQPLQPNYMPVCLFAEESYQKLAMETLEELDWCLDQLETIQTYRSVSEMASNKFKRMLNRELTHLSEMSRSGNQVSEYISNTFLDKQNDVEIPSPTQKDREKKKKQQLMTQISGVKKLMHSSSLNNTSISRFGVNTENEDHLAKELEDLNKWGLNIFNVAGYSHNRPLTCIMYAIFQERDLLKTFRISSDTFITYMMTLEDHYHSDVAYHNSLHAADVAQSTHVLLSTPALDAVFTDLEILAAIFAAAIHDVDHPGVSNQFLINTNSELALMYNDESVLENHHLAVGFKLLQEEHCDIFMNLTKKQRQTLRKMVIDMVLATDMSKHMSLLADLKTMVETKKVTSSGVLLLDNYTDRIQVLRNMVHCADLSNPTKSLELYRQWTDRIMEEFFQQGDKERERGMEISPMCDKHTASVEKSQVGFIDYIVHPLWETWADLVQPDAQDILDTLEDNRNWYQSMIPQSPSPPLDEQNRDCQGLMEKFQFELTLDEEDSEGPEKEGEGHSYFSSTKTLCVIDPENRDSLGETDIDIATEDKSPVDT

PDE4B mean pIC50 [1] | PDE5 mean pIC50 (PDE5 (human recombinant)) | SMILES
7.3 | 5.0 | CC(C)c1cccc(Nc2c(C(N)=O)cnc3ccc(S(=O)(=O)c4ccccc4)cc23)c1
6.6 | 5.5 | COc1ccc(CNc2c(C(N)=O)cnc3ccc(S(=O)(=O)c4ccccc4)cc23)cc1Cl

— patent US7566786B2, “Quinoline derivatives as phosphodiesterase inhibitors” (Glaxo Group Limited, priority 2003, dated 2009)
